Reference: publication PMC9841523, “Discovery of RMC-5552, a Selective Bi-Steric Inhibitor of mTORC1, for the Treatment of mTORC1-Activated Tumors” (Journal of Medicinal Chemistry, 2022)

System: 4EBP1 T37/T46 phosphorylation (mTORC1)
Assay: AlphaLISA/MSD analysis of 4EBP1 phosphorylation in MDA-MB-468 cells
Type: cell-based
Details: pAKT IC50 versus p4EBP1 IC50, MDA-MB-468 cells
Protocol: Cell culture and reagents. Cells were obtained from ATCC, grown in appropriate medium supplemented with 10% fetal bovine serum and 1% penicillin/streptomycin and maintained at 37 °C in a humidified incubator at 5% CO 2.
AlphaLISA and MesoScale Discovery (MSD) analysis of 4EBP1, S6K and AKT phosphorylation. mTOR substrate phosphorylation in MDA-MB-468 cells was assayed using AlphaLISA SureFire Ultra kits for p4EBP1 Thr37/46, p-P70S6K Thr389 and p-AKT1/2/3 Ser473 (PerkinElmer), and MSD Multi-Array Assay Systems for Phospho-4EBP1 (Thr37/46) and Phospho-AKT (Ser473) (MSD). Cells were seeded at 25,000 cells per well and exposed the next day to serial three-fold dilutions of compounds in complete medium with 0.1% dimethylsulfoxide (DMSO). After indicated incubation times, cells were lysed and AlphaLISA or MSD performed according to the manufacturers’ protocols. Samples were read using an EnVision Multilabel Plate Reader (PerkinElmer) using standard AlphaLISA settings or using an MSD plate reader. Data were plotted as a function of logM [compound] with a sigmoidal concentration response (variable slope) model fitted to the data to estimate the inhibitor half-maximum effective concentration (EC 50) in Prism 7 (GraphPad). Alternatively, results were analyzed as percentage of control in which 0% was set as signal from 1 μM Torin1 and 100% was set as the mean of DMSO wells on each plate, and inhibitor EC 50 was estimated as described

| SMILES | selectivity (mTORC1/mTORC2 ratio) |
| --- | --- |
| CO[C@H]1C[C@@H]2CC[C@@H](C)[C@@](O)(O2)C(=O)C(=O)N2CCCC[C@H]2C(=O)O[C@H]([C@H](C)C[C@@H]2CC[C@@H](OCCCCc3cn(CCOCCOCCOCCOCCOCCOCCOCCOCCC(=O)N4CCc5cc(Cn6nc(-c7ccc8oc(N)nc8c7)c7c(N)ncnc76)ccc5C4)nn3)[C@H](OC)C2)CC(=O)[C@H](C)/C=C(\C)[C@@H](O)[C@@H](OC)C(=O)[C@H](C)C[C@H](C)/C=C/C=C/C=C/1C [compound 21] | 20.0 |
| CO[C@H]1C[C@@H]2CC[C@@H](C)[C@@](O)(O2)C(=O)C(=O)N2CCCC[C@H]2C(=O)O[C@H]([C@H](C)C[C@@H]2CC[C@@H](OCCCCc3cn(CCOCCOCCOCCOCCOCCC(=O)NCCCCn4nc(-c5ccc6oc(N)nc6c5)c5c(N)ncnc54)nn3)[C@H](OC)C2)CC(=O)[C@H](C)/C=C(\C)[C@@H](O)[C@@H](OC)C(=O)[C@H](C)C[C@H](C)/C=C/C=C/C=C/1C [compound 28] | 1.3 |
| CO[C@H]1C[C@@H]2CC[C@@H](C)[C@@](O)(O2)C(=O)C(=O)N2CCCC[C@H]2C(=O)O[C@H]([C@H](C)C[C@@H]2CC[C@@H](OC(=O)NCCOCCOCCOCCOCCOCCOCCOCCOCCC(=O)NCCS(=O)(=O)c3ccc(C(=O)N4CCOc5ccc(-c6ccc(N)nc6)cc5C4)c(C)c3F)[C@H](OC)C2)CC(=O)[C@H](C)/C=C(\C)[C@@H](O)[C@@H](OC)C(=O)[C@H](C)C[C@H](C)/C=C/C=C/C=C/1C [compound 31] | 4.1 |
| COc1ccc(-c2ccc3ncc4c(c3c2)n(C)c(=O)n4-c2ccc(N3CCN(C(=O)CCOCCOCCOCCOCCOCCOCCOCCOCCn4cc(CCCCO[C@@H]5CC[C@@H](C[C@@H](C)[C@@H]6CC(=O)[C@H](C)/C=C(\C)[C@@H](O)[C@@H](OC)C(=O)[C@H](C)C[C@H](C)/C=C/C=C/C=C(\C)[C@@H](OC)C[C@@H]7CC[C@@H](C)[C@@](O)(O7)C(=O)C(=O)N7CCCC[C@H]7C(=O)O6)C[C@H]5OC)nn4)CC3)c(C(F)(F)F)c2)cn1 [compound 19] | 8.7 |
| CO[C@H]1C[C@@H]2CC[C@@H](C)[C@@](O)(O2)C(=O)C(=O)N2CCCC[C@H]2C(=O)O[C@H]([C@H](C)C[C@@H]2CC[C@@H](OCCOCc3cn(CCOCCOCCOCCOCCOCCOCCOCCOCCC(=O)NCCCCn4nc(-c5ccc6oc(N)nc6c5)c5c(N)ncnc54)nn3)[C@H](OC)C2)CC(=O)[C@H](C)/C=C(\C)[C@@H](O)[C@@H](OC)C(=O)[C@H](C)C[C@H](C)/C=C/C=C/C=C/1C [compound 3, RapaLink-1, reference compound] | 3.9 |
| CO[C@H]1C[C@@H]2CC[C@@H](C)[C@@](O)(O2)C(=O)C(=O)N2CCCC[C@H]2C(=O)O[C@H]([C@H](C)C[C@@H]2CC[C@@H](OCCCCc3cn(CCOCCOCCOCCOCCOCCOCCOCCOCCC(=O)NCCCCn4nc(-c5ccc6oc(N)nc6c5)c5c(N)ncnc54)nn3)[C@H](OC)C2)CC(=O)[C@H](C)/C=C(\C)[C@@H](O)[C@@H](OC)C(=O)[C@H](C)C[C@H](C)/C=C/C=C/C=C/1C [compound 16] | 2.8 |
| CO[C@H]1C[C@@H]2CC[C@@H](C)[C@@](O)(O2)C(=O)C(=O)N2CCCC[C@H]2C(=O)O[C@H]([C@H](C)C[C@@H]2CC[C@@H](OCCCCc3cn(CCOCCOCCOCCOCCOCCOCCC(=O)NCCCCn4nc(-c5cc6cc(O)ccc6[nH]5)c5c(N)ncnc54)nn3)[C@H](OC)C2)CC(=O)[C@H](C)/C=C(\C)[C@@H](O)[C@@H](OC)C(=O)[C@H](C)C[C@H](C)/C=C/C=C/C=C/1C [compound 25] | 0.3 |
| CO[C@H]1C[C@@H]2CC[C@@H](C)[C@@](O)(O2)C(=O)C(=O)N2CCCC[C@H]2C(=O)O[C@H]([C@H](C)C[C@@H]2CC[C@@H](OCCCCc3cn(CCOCCOCCOCCOCCOCCOCCOCCOCCC(=O)N4CCC(Cn5nc(-c6ccc7oc(N)nc7c6)c6c(N)ncnc65)CC4)nn3)[C@H](OC)C2)CC(=O)[C@H](C)/C=C(\C)[C@@H](O)[C@@H](OC)C(=O)[C@H](C)C[C@H](C)/C=C/C=C/C=C/1C [compound 22] | 2.7 |
| CO[C@H]1C[C@@H]2CC[C@@H](C)[C@@](O)(O2)C(=O)C(=O)N2CCCC[C@H]2C(=O)O[C@H]([C@H](C)C[C@@H]2CC[C@@H](OCCCCc3cn(CCOCCOCCOCCOCCOCCOCCOCCOCCC(=O)NCCCCn4nc(-c5cc6cc(O)ccc6[nH]5)c5c(N)ncnc54)nn3)[C@H](OC)C2)CC(=O)[C@H](C)/C=C(\C)[C@@H](O)[C@@H](OC)C(=O)[C@H](C)C[C@H](C)/C=C/C=C/C=C/1C [compound 18] | 12.9 |
| CO[C@H]1C[C@@H]2CC[C@@H](C)[C@@](O)(O2)C(=O)C(=O)N2CCCC[C@H]2C(=O)O[C@H]([C@H](C)C[C@@H]2CC[C@@H](OCCCCc3cn(CCOCCOCCOCCOCCOCCOCCC(=O)NCCCCn4nc(-c5ccc6oc(N)nc6c5)c5c(N)ncnc54)nn3)[C@H](OC)C2)CC(=O)[C@H](C)/C=C(\C)[C@@H](O)[C@@H](OC)C(=O)[C@H](C)C[C@H](C)/C=C/C=C/C=C/1C [compound 27] | 4.7 |
| CO[C@H]1C[C@@H]2CC[C@@H](C)[C@@](O)(O2)C(=O)C(=O)N2CCCC[C@H]2C(=O)O[C@H]([C@H](C)C[C@@H]2CC[C@@H](OC(=O)NCCOCCOCCOCCOCCOCCOCCOCCOCCC(=O)N3CCc4cc(Cn5nc(-c6ccc7oc(N)nc7c6)c6c(N)ncnc65)ccc4C3)[C@H](OC)C2)CC(=O)[C@H](C)/C=C(\C)[C@@H](O)[C@@H](OC)C(=O)[C@H](C)C[C@H](C)/C=C/C=C/C=C/1C [compound 30] | 11.2 |
| COc1ccc(-c2ccc3ncc4c(c3c2)n(-c2ccc(N3CCN(C(=O)CCOCCOCCOCCOCCOCCOCCn5cc(CCCCO[C@@H]6CC[C@@H](C[C@@H](C)[C@@H]7CC(=O)[C@H](C)/C=C(\C)[C@@H](O)[C@@H](OC)C(=O)[C@H](C)C[C@H](C)/C=C/C=C/C=C(\C)[C@@H](OC)C[C@@H]8CC[C@@H](C)[C@@](O)(O8)C(=O)C(=O)N8CCCC[C@H]8C(=O)O7)C[C@H]6OC)nn5)CC3)c(C(F)(F)F)c2)c(=O)n4C)cn1 [compound 26] | 9.3 |
| CO[C@H]1C[C@@H]2CC[C@@H](C)[C@@](O)(O2)C(=O)C(=O)N2CCCC[C@H]2C(=O)O[C@H]([C@H](C)C[C@@H]2CC[C@@H](OCCOCc3cn(CCOCCOCCOCCOCCOCCOCCOCCOCCC(=O)NCCCCn4nc(-c5cc6cc(O)ccc6[nH]5)c5c(N)ncnc54)nn3)[C@H](OC)C2)CC(=O)[C@H](C)/C=C(\C)[C@@H](O)[C@@H](OC)C(=O)[C@H](C)C[C@H](C)/C=C/C=C/C=C/1C [compound 17, reference compound] | 9.6 |
| CO[C@H]1C[C@@H]2CC[C@@H](C)[C@@](O)(O2)C(=O)C(=O)N2CCCC[C@H]2C(=O)O[C@H]([C@H](C)C[C@@H]2CC[C@@H](OCCCCc3cn(CCOCCOCCOCCOCCOCCOCCC(=O)NCCCCn4nc(-c5cnc6[nH]ccc6c5)c5c(N)ncnc54)nn3)[C@H](OC)C2)CC(=O)[C@H](C)/C=C(\C)[C@@H](O)[C@@H](OC)C(=O)[C@H](C)C[C@H](C)/C=C/C=C/C=C/1C [compound 24] | 3.5 |
| CO[C@H]1C[C@@H]2CC[C@@H](C)[C@@](O)(O2)C(=O)C(=O)N2CCCC[C@H]2C(=O)O[C@H]([C@H](C)C[C@@H]2CC[C@@H](OCCCCc3cn(CCOCCOCCOCCOCCOCCOCCOCCOCCC(=O)NCCCCn4nc(-c5cnc6[nH]ccc6c5)c5c(N)ncnc54)nn3)[C@H](OC)C2)CC(=O)[C@H](C)/C=C(\C)[C@@H](O)[C@@H](OC)C(=O)[C@H](C)C[C@H](C)/C=C/C=C/C=C/1C [compound 20] | 17.0 |
